PubChem BioAssay AID504894 (National Center for Advancing Translational Sciences (NCATS), 2011)
The list shows a part of the results, in another mix than the full data. Active and inactive are the calls of the source. Calls follow the shape of the dose curve; as a rule, active = well fitted activation curve with a large enough effect; inconclusive = small, poorly fitted or top-dose-only effect, or another doubt; inactive = no such curve, though single readings can be large or run the other way.

assay: Activators of T cell receptors: qHTS campaign; conditions: primary human leukocytes, anti-CD3, IL-2 HTRF, 48 h; at 9.22 µM (top of the series); also: % of control where 0% means no effect
Source text: Normally activation of naive T cells requires two signals. 1. A signal through the T cell receptor (TCR) which provides antigen specificity to the response. 2. Signals through co-stimulatory molecules, which are necessary for proliferation, survival and cytokine production. In the absence of co-stimulatory signals T cells are not effectively activated, and may even be rendered anergic or unresponsive to subsequent signaling. This lack of costimulation has been shown in multiple model systems to be a major factor in the limited strength and effectiveness of anti-tumor T cell responses. The goal of this project is to identify small molecule compounds that will stimulate T cell activation in the presence of TCR signaling but in the absence of co-stimulatory signals, thereby allowing activation of naive T cells in the absence of co-stimulation. Identification of such compounds would have clear experimental and clinical applications in instances where desirable antigen-specific immune responses are not generated due to a lack of co-stimulation, for example in the generation of anti-tumor responses. […] The screen will be carried out using a novel homogeneous time resolved fluorescence energy transfer (HTRF) assay to measure production of the cytokine IL-2 by activated T cells and will be tested against the NIH Molecular Libraries Small Molecule Repository (MLSMR). […]

Row | Structure (SMILES) | activation of IL-2 secretion
1 | CN(C)CCOC(=O)C(O)(c1ccccc1)C1CCCCC1 (configuration not stated) | inactive: 2.73%
2 | CP(=O)(Nc1ccc(Cl)cc1)Oc1ccc(F)cc1 (configuration not stated) | inactive: -2.3%
